# Screens as filed in PubChem.
# SMARCA2 activ = SMARCA2 function activation, primary screen. MG213 cells, MMTV-luciferase reporter, dexamethasone, overnight. activation, % at 9.1 µM. 370,000 compounds, 1% hits; in the data active = activation above about 7.8%
# ERp5 block = ERp5 (human) disulfide isomerase inhibition. 350,000 compounds, 0.05% hits. inhibition, % at 9.99 µM. Q15084. ERp5 insulin aggregation, absorbance 650 nm, 90 min. AID 651711;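 active = mean replicate inhibition above about 25%, with every replicate also reaching it, limit read from the data, passing the limit was not always enough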
# PDI inh = blocks human protein disulfide isomerase activity; inhibition, % at 10 µM; PDI insulin aggregation turbidity, A650, 90 min; 350,000 compounds, 0.052% hits;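 active = mean inhibition across replicates of 30% or more, whatever share of single replicates reach that level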
# NR1D1 modulator = modulates human Rev-erb alpha binding to DNA | P20393 | activity, % at 10 µM | Rev-erbα–FITC-DNA binding, fluorescence polarization, 90 min | 370,000 compounds, 0.79% hits;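 active = activity above about 14%, limit read from the data; passing the limit was not always enough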
# Yeast UUG start = modulators of start codon recognition fidelity in yeast; AID 602363; activity score, % at 18.7 µM; S. cerevisiae UUG-firefly luciferase reporter, luminescence/redox ratio; actives 0.13% (n = 350,000);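 active = replicate mean at a twofold rise or more, about +100% in these data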;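 note: firefly luciferase made from a UUG start codon reports start codon fidelity; reporter light over untreated wells divided by growth signal over untreated wells; some hits fall short of that in this replicate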
# INS-1E GSIS act = GLuc luminescence reporter in INS-1E cells, primary screen for activators of glucose-dependent secretion of insulin. INS-1E GLuc reporter insulin secretion, 2-3 h. activation, % at 16.6 µM. 370,000 compounds, 0.61% hits;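 active = lowest replicate activation of at least 40%, so every replicate reaches that level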
# Rev-erbA confirm = confirmation of modulators of human Rev-erb alpha DNA binding. shares compounds with NR1D1 modulator. Rev-erb alpha FITC-DNA binding, fluorescence polarization, 90 min. activation, % at 25 µM. 3,000 compounds, 61% hits. AID 1259319;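 active = activation at or above a set limit, or at least 3 SD above the negative control mean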
# RORg DNA counter = RORgamma DNA-binding activity, dose-response counter-screen; shares compounds with NR1D1 modulator; purified RORgamma protein-FITC-DNA binding, fluorescence polarization; IC50, µM; 910 compounds, 8% hits; AID 1259320;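 active = Compounds whose fitted half-maximal concentration for disrupting protein-DNA binding is below 10 micromolar; the record names Rev-erb in its text, so the target is in doubt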
# Numbers stand for hits; 0 = inactive; - = no result. In the library only some 2.1% were active in any assay of this set; here they are far more common.
SMILES,SMARCA2 activ,ERp5 block,PDI inh,NR1D1 modulator,Yeast UUG start,INS-1E GSIS act,Rev-erbA confirm,others
Fc1cccc(Cn2ccc3ccc(-c4ccc5ccn(Cc6ccccc6)c5c4)cc32)c1,0,-,-,0,-,-,-,
N#Cc1cccc(Cn2ccc3ccc(-c4ccc5ccn(Cc6cccc(C#N)c6)c5c4)cc32)c1,0,-,-,59,-,-,38,RORg DNA counter=2.5
COc1ccc(Cn2ccc3ccc(-c4ccc5ccn(Cc6ccc(C#N)cc6)c5c4)cc32)cc1,0,-,-,38,-,-,0,
CCS(=O)(=O)Nc1ccc2c(c1)C(=O)N(C)C[C@H](OC)[C@H](C)CN(CC1CCCC1)[C@H](C)CO2,-,-,-,-,-,0,-,
CCOc1ccc(C(=O)Nc2sc3c(c2C(=O)OC)CC(C)(C)NC3(C)C)cc1,0,0,0,70,0,0,0,
CC(C)NC(=O)N(C)C[C@H]1OCc2cn(nn2)CCCC(=O)N([C@@H](C)CO)C[C@@H]1C,-,0,-,-,0,0,-,
C/C=C/c1ccc2c(c1)O[C@@H](CN(C)C(=O)CN1CCOCC1)[C@@H](C)CN([C@H](C)CO)S2(=O)=O,-,0,-,-,0,0,-,
COCc1cc(C)nc(Nc2ccc(C)c(C)c2)c1C#N,0,-,0,25,-,-,0,
CCNc1nc(C)cc(COC)c1C#N,0,-,0,0,0,-,-,
COCc1cc(C)nc(Nc2ccc(C)cc2C)c1C#N,0,-,0,29,0,0,0,
CCC(=O)c1ccc(OCc2ccc(C(=O)c3ccccc3)cc2)cc1,0,0,0,70,-,0,149,RORg DNA counter=0
C[C@H]1CN([C@@H](C)CO)C(=O)c2cc(NC(=O)Nc3ccc(F)cc3)ccc2O[C@@H]1CN(C)S(=O)(=O)c1cn(C)cn1,-,0,-,-,0,0,-,
N#CC(C#N)=C1C=C2C=C(N3CCOCC3)CCC2CC1 (stereo not drawn),0,0,0,305,-,-,111,RORg DNA counter=0
N#CC(C#N)=C1C=C2C=C(N3CCCCCC3)CCC2CC1 (stereo not drawn),0,0,0,273,-,0,167,RORg DNA counter=0
CCN1CCN(C2=CC3=CC(=C(C#N)C#N)CCC3CC2)CC1 (stereo not drawn),-,-,0,-,-,-,-,
CN1CCN(C2=CC3=CC(=C(C#N)C#N)CCC3CC2)CC1 (stereo not drawn),-,-,0,-,-,-,-,
CCCNC(=O)C[C@@H]1CC[C@@H]2[C@H](COC[C@H](O)CN2C(=O)c2ccccn2)O1,-,0,-,-,0,0,-,
O=C(NCCOc1ccccc1)c1ccc2c(c1)S(=O)(=O)c1cc(Cl)ccc1C2=O,0,0,0,23,0,-,0,
CCC(=O)N1CCCC(C)(C(=O)Nc2ccc3scnc3c2)C1 (stereo not drawn),0,0,0,19,0,0,0,
CCCC(=O)N1CCC1(C)C(=O)Nc1ccc2scnc2c1 (stereo not drawn),-,-,0,-,0,-,-,
COc1ccc(NC(=O)N(C)C[C@@H]2OCCCC[C@@H](C)Oc3ccc(NC(=O)NC4CCCCC4)cc3C(=O)N([C@@H](C)CO)C[C@H]2C)cc1,-,0,-,-,0,0,-,
CN(C)/C=C1\C=C2C(=O)c3ccccc3N2C1=O,0,0,0,340,-,0,229,RORg DNA counter=1.1
C[C@@H]1CN([C@@H](C)CO)C(=O)c2cc(NS(=O)(=O)c3cccs3)ccc2O[C@@H](C)CCCCO[C@@H]1CN(C)Cc1ccncc1,-,0,-,-,0,0,-,
COc1cc(NC(=O)c2ccc(-c3ccc(F)c(F)c3)c3ccoc23)cc(OC)c1OC,0,0,0,18,0,0,0,
COc1cc(NC(=O)c2ccc(-c3cn[nH]c3)c3ccoc23)cc(OC)c1OC,0,0,0,0,0,-,-,
SMILES,SMARCA2 activ,ERp5 block,PDI inh,NR1D1 modulator,Yeast UUG start,INS-1E GSIS act,Rev-erbA confirm,others
Cn1nc(C(=O)OCC(=O)Nc2cc(Cl)ccc2C#N)c2ccccc2c1=O,0,0,0,0,0,0,-,
Cn1nc(C(=O)OCC(=O)NCc2ccc(Cl)cc2Cl)c2ccccc2c1=O,0,0,0,18,0,0,20,
C[C@@H]1CCCCO[C@H](CN(C)Cc2ccc(C(=O)O)cc2)[C@H](C)CN([C@H](C)CO)C(=O)c2cc(NC(=O)c3ccccc3)ccc2O1,-,0,-,-,0,0,-,
C[C@H](CO)N1C[C@H](C)[C@@H](CN(C)C(=O)C2CC2)Oc2cc(-c3ccc(F)cc3)ccc2S1(=O)=O,-,-,-,-,0,0,-,
COC(=O)c1ccc(N/C=C\C(=O)c2ccc3c(c2)OCO3)cc1,0,0,0,118,-,0,44,RORg DNA counter=0
COc1ccc(N/C=C\C(=O)c2ccc3c(c2)OCO3)cc1OC,0,0,0,0,0,0,-,
COC(=O)c1ccc(N/C=C/C(=O)c2ccc(OC)c(OC)c2)cc1,0,-,0,23,0,0,0,
CC(C)NC(=O)Nc1ccc2c(c1)C(=O)N([C@@H](C)CO)C[C@H](C)[C@H](CN(C)S(=O)(=O)c1cccs1)OCCCC[C@@H](C)O2,-,0,-,-,0,0,-,
Cc1cc2ccccc2nc1SCC(=O)N1c2ccccc2CC1C (stereo not drawn),0,-,0,147,-,-,0,
CC1Cc2ccccc2N1C(=O)CSc1nc2cc3c(cc2cc1C#N)OCO3 (stereo not drawn),0,-,0,70,0,-,32,
Cc1cc2cc3c(cc2nc1SCC(=O)N1c2ccccc2CC1C)OCO3 (stereo not drawn),0,-,0,0,0,-,-,
C[C@H]1CN(C)C(=O)c2cccc(N(C)C)c2O[C@H]1CN(C)C,-,-,-,-,-,0,-,
CCCCn1c(-c2ccc(F)c(F)c2)nc2cc3[nH]c(=O)c(C(C)C)nc3cc21,0,0,0,18,0,-,0,
COc1ccc(CN(C)C[C@H]2OCCCC[C@@H](C)Oc3ccc(NC(=O)Nc4ccc(F)cc4)cc3C(=O)N([C@@H](C)CO)C[C@H]2C)cc1,-,0,-,-,0,0,-,
C[C@H]1CN([C@@H](C)CO)C(=O)c2cc(C#Cc3cccnc3)cnc2O[C@@H]1CN(C)C(=O)CN(C)C,-,0,-,-,0,0,-,
Cc1ccc(C(c2sc3nc(C)nn3c2O)N2CCN(CCO)CC2)cc1 (stereo not drawn),0,0,-,17,0,-,0,
CN(C(=O)COC(=O)c1cc(-c2ccccc2Cl)nc2ccccc12)C1CCS(=O)(=O)C1 (stereo not drawn),0,0,0,0,0,0,-,
CN(C(=O)COC(=O)c1cc(-c2ccc(Cl)s2)nc2ccccc12)C1CCS(=O)(=O)C1 (stereo not drawn),0,0,0,51,-,0,0,
CCOC(=O)c1c(C)nc2sc3c(=O)n(-c4ccc(OC)cc4)cnc3c2c1-c1ccc(OC)cc1,0,-,0,35,-,0,0,
CCOC(=O)c1c(C)nc2sc3c(=O)n(-c4ccc(C(C)=O)cc4)nnc3c2c1-c1ccc(OC)cc1,0,-,0,0,0,-,-,
CCOC(=O)C(CN1CCCC1)c1ccccc1 (stereo not drawn),0,0,0,21,0,0,0,
